Measured values taken from PubChem BioAssay AID624171 (National Center for Advancing Translational Sciences (NCATS), 2012).
Only a part is listed here, and it is no random draw. The source made the active and inactive calls. Calls come from the whole dose curve; as a rule, active = well fitted activation curve with a large enough effect; inconclusive = small, poorly fitted or top-dose-only effect; inactive = flat fitted curve, though single readings scatter.

Experiment: qHTS of Nrf2 Activators; note: % of control where 0% means no effect; nearly all actives have a fitted effect of over 65% in size
Conditions: AREc32 ARE-luciferase reporter (MCF7-derived line), luminescence, 24 h; at 46.1 µM (top of the series) unless noted
Text: Many diseases have some form of oxidative stress injury and ties to inflammation, causing a host of problems for the patient. The antioxidant response element (ARE) plays an important role in alleviating the harmful effects of oxidative stress. The antioxidant response element (ARE) is a transcriptional regulatory element involved in the activation of genes coding for a number of antioxidant proteins and detoxifying enzymes. These enzymes work in concert to protect tissues from oxidative insults and chemical toxicities in human hepatocytes and immune cells. The protective effects of ARE activation are primarily triggered through Nrf2 (NF-E2-related factor) binding to and activating AREs. It is known that Nrf2 controls the production of over 250 antioxidant and detoxification proteins (Hu et al., 2006), thereby protecting tissues by increasing cellular antioxidant content and suppressing inflammatory signaling pathways. The transcription factor Nrf2 is a central link between oxidative chemicals, such as phenolic antioxidants and electrophilic compounds, and the activation of ARE. Nrf2 levels are constitutively low as a consequence of its interaction with Keap1, which targets its degradation (Zipper and Mulcahy, 2002). Electrophiles react with key cysteine residues in Keap1, releasing Nrf2 and allowing its translocation to the nucleus. Once within the nucleus, Nrf2 complexes with coactivators such as p300, and binds to the AREs to induce gene transcription of cytoprotective enzymes, resulting in the prevention of toxicity. Activation of Nrf2 protects tissues by increasing cellular antioxidant content and suppressing inflammatory signaling pathways. Identifying novel and potent Nrf2 activators by using the AREc32 cell line to detect ARE activation by small molecules will lead to the identification and development of probes to study protective pathways in multiple tissues. These specific probes are essential to study the ARE pathway, and eventually to determine whether this pathway does activate genes that could protect against a host of diseases, including cardiovascular diseases, obesity, diabetes, Alzheimer's, and Parkinson's disease.
This project's aim is to identify novel and potent Nrf2 activators by using the AREc32 cell line to detect ARE activation by small molecules, which will lead to the identification and development of probes to study the ARE pathway.
NIH Chemical Genomics Center [NCGC]
NIH Molecular Libraries Probe Centers Network [MLPCN]
Assay Submitter (PI): Curtis Klaassen, University of Kansas Medical Center
5 uL of 1000 cells/well of AREc32_Fluc cells are seeded into 1536-well plate in OPTI-MEM medium with 5% FBS. The plates are incubated overnight at 37 deg C with 5% CO2. Then through pin tool transfer, 23 nL of compounds are added to each well before a 24 hr incubation at 37 deg C with 5% CO2. After the addition of 2.5 uL of Steady-Glo. the plates are kept at RT for 30 min, before they are read on the ViewLux.

Compound | activation
O=C(O)CNc1ccc([As](=O)(O)O)cc1 | inactive: -0.908%
O=[N+]([O-])c1cccc(NC2=NCC(CBr)S2)c1 (stereo not drawn) | inactive: 5.7%
COC(=O)C1(C)COP(=O)(Nc2ccccc2)OC1 (stereo not drawn) | inactive: -0.826%
O=[N+]([O-])c1ncn(CCn2ncnc2[N+](=O)[O-])n1 | inactive: 0.624%
CC(C)(C)C(=O)NC(Sc1ccncn1)C(Cl)(Cl)Cl (stereo not drawn) | inactive: -0.883%
O=C(Nc1cc([As](=O)(O)O)ccc1O)c1ccccc1 | inactive: -0.582%
O=P1(N(CCCl)CCCl)OCCCS1 (stereo not drawn) | inactive: -0.0504%
c1cc(-c2nn[nH]n2)ccc1-c1nn[nH]n1 | inactive: -1.44%
CC1CCN(C(=O)Oc2c(Cl)cc(Cl)c3cccnc23)CC1 | inactive: 3.26%
CN(C)C(=O)OCCc1n(C)cc[n+]1C | inactive: 0.0946%
CC(C)=N/N=C(\N)N[N+](=O)[O-] | inactive: 2.17%
CC(C)c1nc(Nc2ccccc2)n(P(=O)(N(C)C)N(C)C)n1 | inactive: -0.139%
CCN(/C(=N/P(=O)(N1CCOCC1)N1CCOCC1)N1CCOCC1)c1ccc(OC)cc1 | inactive: -0.328%
C[N+]1=C2C=CC=CC=C2SC12C([N+](=O)[O-])=CC([N+](=O)[O-])=C[C-]2[N+](=O)[O-] (stereo not drawn) | inactive: -2.75%
Nc1ccc([As](=O)(O)c2ccc(N)cc2)cc1 | inactive: -0.319%
CCc1nc2c(n1)c1c(non1O)c1c2no[n+]1[O-] | inactive: 7.53%
Cc1ccc(NP(=O)(Oc2ccccc2)Oc2ccccc2)nc1 | inactive: 0.473%
CC(=O)N1C2C3N(C(C)=O)C1C1N(C(C)=O)C(C(N1C(C)=O)N3C(C)=O)N2C(C)=O | inactive: 0.305%
O=[N+]([O-])c1cccc2n[nH]nc12 | inactive: 0.561%
COc1ccc(C2=NCC(CBr)S2)cc1 (stereo not drawn) | inactive: 0.0536%
O=[N+]([O-])C1C(O)C(O)C([N+](=O)[O-])C(O)C1O (stereo not drawn) | inactive: -0.0865%

Compound | activation
O=C(NC(Sc1ccncn1)C(Cl)(Cl)Cl)c1ccccc1 (stereo not drawn) | inactive: 5.3%
Oc1ccccc1CNc1ccccn1 | inactive: -0.416%
CC(C)CC(=O)NC(Sc1ccc(Cl)cc1)C(Cl)(Cl)Cl (stereo not drawn) | inactive: 0.309%
Nc1cc(N)c2nonc2c1[N+](=O)[O-] | inactive: -0.507%
Clc1ccc(Cl)c(NC2=NCC(CBr)S2)c1 (stereo not drawn) | inactive: 0.378%
CN1CCCC(OC(=O)C(c2ccccc2)c2ccccc2)C1 (stereo not drawn) | inactive: 1.91%
Cc1ccc(OP(=O)(Nc2nccs2)Oc2ccc(C)cc2)cc1 | inactive: -0.632%
COc1ccccc1OP(=O)(Nc1ccc(C)cn1)Oc1ccccc1OC | inactive: -0.614%
Cc1ccc(N/C(=N/P(=O)(N2CCOCC2)N2CCOCC2)N2CCOCC2)cc1 | inactive: 0.0858%
CN(C(=O)Cc1ccc(Cl)c(Cl)c1)[C@H]1CCCC[C@H]1N1CCCC1 | inactive: -0.757%
NC(=O)c1cc([N+](=O)[O-])cc([N+](=O)[O-])c1N | inactive: 0.104%
Nc1cccc2ccc([As](=O)(O)O)cc12 | inactive: -0.594%
CCN(N=Nc1nonc1N)c1nonc1N | inactive: -0.294%
CN(C(=O)Cc1ccc(Cl)c(Cl)c1)[C@H]1CCCC[C@@H]1N1CCCC1 | inactive: 0.83%
Cc1ccc(NP(=O)(Oc2ccccc2F)Oc2ccccc2F)nc1 | inactive: -0.4%
CCOP(=O)(Nc1ccccc1)OCC | inactive: -0.925%
Cc1cc(SC(NC(=O)c2ccc(F)cc2)C(Cl)(Cl)Cl)ncn1 (stereo not drawn) | inactive: -0.0747%
CN(C)P(=O)(N(C)C)n1c(Nc2ccccc2)nnc1-c1ccccc1 | inactive: 2.98%
O=P(Nc1nc2ccc(Cl)cc2s1)(c1ccccc1)c1ccccc1 | inactive: 4.7%
CCCC1OP(N)(=O)OCC1CC (stereo not drawn) | inactive: -1.12%
O=C(O)c1ccccc1[As](=O)(O)O | inactive: 0.0138%

Compound | activation
CC(=O)Nc1ccc([As](=O)(O)O)cc1 | inactive: -0.601%
CN(C)C(=O)Oc1noc2ccccc12 | inactive: 0.178%
O=c1c2cc([N+](=O)[O-])ccc2[nH]c2c([N+](=O)[O-])cc([N+](=O)[O-])cc12 | inactive: -0.255%
Cc1ccccc1OP(=O)(Nc1ccccn1)Oc1ccccc1C | inactive: -0.143%
CC(NC(=O)COC(=O)C(O)(c1ccccc1)c1ccccc1)c1ccccc1 (stereo not drawn) | inactive: 0.0942%
CCC(=O)N1C2C3N(C(=O)CC)C1C1N(C(=O)CC)C(C(N1C(=O)CC)N3C(=O)CC)N2C(=O)CC | inactive: -0.408%
O=C(OC1CN2CCC1CC2)c1ccccc1 (stereo not drawn) | inactive: -1.35%
CC(=O)NC(SC(=S)N(CC(C)C)CC(C)C)C(Cl)(Cl)Cl (stereo not drawn) | inactive: -0.817%
Cc1ccc(OP(=O)(Nc2ccccn2)Oc2ccc(C)cc2)cc1 | inactive: 2.38%
COC(=O)c1cc2c(s1)N=C(c1ccccc1)N(C)P2(=O)N1CCOCC1 (stereo not drawn) | inactive: 2.25%
O=P1(N(CCCl)CCCl)OCCC2CCCCN21 (stereo not drawn) | inactive: -1.21%
Cc1ccc(NP(=O)(Oc2cccc(C)c2)Oc2cccc(C)c2)nc1 | inactive: -0.224%
c1ccc(-c2nn[nH]n2)c(-c2nn[nH]n2)c1 | inactive: 2.06%
O=C(NC1CCS(=O)(=O)C1)NP(=S)(Oc1ccccc1)Oc1ccccc1 (stereo not drawn) | inactive: 2.5%
CCNC(=S)/N=C(\N)N[N+](=O)[O-] | inactive: -0.0932%
CC(=O)Nc1ccc(Oc2c([N+](=O)[O-])cc([N+](=O)[O-])cc2[N+](=O)[O-])cc1 | inactive: 9.72%
CC(=O)Nc1ccc([As](=O)(O)O)c(O)c1 | inactive: -0.495%
C[C@@H]1C=CCP(=O)(Oc2ccccc2)O1 (stereo partly drawn) | inactive: -0.28%
C[C@H]1OP(=O)(Oc2ccccc2)C[C@@H]2O[C@@H]21 (stereo partly drawn) | inactive: -0.358%
Cc1ccccc1CN(C)C(=O)COC(=O)C(O)(c1ccccc1)c1ccccc1 | inactive: 2.04%
COC(=O)C1(C)COP(=O)(NCc2ccccc2)OC1 (stereo not drawn) | inactive: -0.234%
